From PubChem BioAssay AID720507 (National Center for Advancing Translational Sciences (NCATS), 2013)
The entries are a selection whose mix differs from that of the whole data set. Results filed as inconclusive are left out. Active and inactive are the calls of the source. The call rests on the fitted dose curve; in most records, active means well fitted activation curve with a large enough effect; inconclusive means small, poorly fitted or top-dose-only effect; inactive means flat fitted curve, though single readings scatter.

Amino acid sequences for entries named in this document (tags omitted).
UniProt P14416, whole entry, looked up: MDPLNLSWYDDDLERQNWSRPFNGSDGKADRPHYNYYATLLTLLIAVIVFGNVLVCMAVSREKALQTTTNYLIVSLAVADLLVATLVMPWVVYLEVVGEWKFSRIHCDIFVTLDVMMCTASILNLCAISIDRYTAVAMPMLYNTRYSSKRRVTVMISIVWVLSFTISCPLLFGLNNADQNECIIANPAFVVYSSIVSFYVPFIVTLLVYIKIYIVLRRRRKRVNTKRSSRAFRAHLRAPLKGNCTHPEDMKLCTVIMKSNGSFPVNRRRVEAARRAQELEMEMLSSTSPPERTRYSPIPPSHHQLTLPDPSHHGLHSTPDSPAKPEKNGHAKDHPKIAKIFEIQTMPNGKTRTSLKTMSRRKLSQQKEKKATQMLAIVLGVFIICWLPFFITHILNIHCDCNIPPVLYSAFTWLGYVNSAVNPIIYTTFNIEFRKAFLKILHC

These compounds were tested against D(2) dopamine receptor (Homo sapiens) (UniProt P14416) (assay: qHTS of D3 Dopamine Receptor Agonist: D2 Dopamine Receptor B-arrestin Agonist Counterscreen). Conditions: DiscoveRx PathHunter D2 beta-arrestin, luminescence, 90 min, percent relative to full dopamine signal; at 76.9 µM (top of the series).
Excerpt: D3 DARs represent a very important target for the treatment of several neuropsychiatric disorders. Indeed, one of the most promising therapeutic applications for the D3 DAR is in the area of addiction and related disorders. […] These findings have been observed with a number of addictive substances including cocaine, amphetamine, nicotine, and alcohol. […] Increased D3 DAR activity can thus lead to neuroprotective and neurorestorative actions in the CNS. […] This assay is used to profile the activity of the identified D3 dopamine receptor agonist against the D2 dopamine receptor. Greater than 10% of the maximum dopamine agonist response is desired for this assay. NIH Molecular Libraries Probe Production Centers Network [MLPCN] NIH Chemical Genomics Center [NCGC] MLPCN Grant: NS064831 Assay Submitter (PI): David Sibley
DiscoveRx D2 cells were thawed from frozen stock and seeded at 2,100 cells/ 3 uL/well media (DiscoveRx Plating Reagent 2) with MultiDrop Combi dispenser (Thermo Scientific, Logan, UT) onto white tissue culture treated 1536-well Aurora plates (Brooks Automation, Chelmsford, MA) and allowed to attach overnight at 37 deg C, 5% CO2. […] The plates were incubated at ambient temperature for 1 hour and then the luminescent signal was read on ViewLux plate reader (PerkinElmer, Waltham, MA).
Further: % of control where 0% means no effect; nearly all actives have a fitted effect of over 70% in size.

Q: How did the activation turn out when `O=C(NCC1(N2CCCCC2)CCCCC1)c1ccc(Cl)s1` was run?
A: Its activation is inactive: -2.72%.
